From US7034041B2 (priority 2000, dated 2006)
Where two headings read alike, the source gives them in different places.

Chains of the proteins cited; added tags and fusions are not shown.
UniProt P33535, whole entry, looked up: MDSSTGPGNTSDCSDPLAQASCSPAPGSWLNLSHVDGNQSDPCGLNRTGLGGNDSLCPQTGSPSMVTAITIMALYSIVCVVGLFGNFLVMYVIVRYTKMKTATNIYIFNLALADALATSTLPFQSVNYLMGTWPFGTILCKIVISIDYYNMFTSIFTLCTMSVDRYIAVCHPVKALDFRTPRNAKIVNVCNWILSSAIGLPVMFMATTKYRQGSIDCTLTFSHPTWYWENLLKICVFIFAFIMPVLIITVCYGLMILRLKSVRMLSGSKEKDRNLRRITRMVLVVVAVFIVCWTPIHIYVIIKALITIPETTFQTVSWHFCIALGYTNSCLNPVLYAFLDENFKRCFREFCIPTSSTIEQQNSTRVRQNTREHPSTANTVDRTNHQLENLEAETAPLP
UniProt P35372, whole entry, looked up: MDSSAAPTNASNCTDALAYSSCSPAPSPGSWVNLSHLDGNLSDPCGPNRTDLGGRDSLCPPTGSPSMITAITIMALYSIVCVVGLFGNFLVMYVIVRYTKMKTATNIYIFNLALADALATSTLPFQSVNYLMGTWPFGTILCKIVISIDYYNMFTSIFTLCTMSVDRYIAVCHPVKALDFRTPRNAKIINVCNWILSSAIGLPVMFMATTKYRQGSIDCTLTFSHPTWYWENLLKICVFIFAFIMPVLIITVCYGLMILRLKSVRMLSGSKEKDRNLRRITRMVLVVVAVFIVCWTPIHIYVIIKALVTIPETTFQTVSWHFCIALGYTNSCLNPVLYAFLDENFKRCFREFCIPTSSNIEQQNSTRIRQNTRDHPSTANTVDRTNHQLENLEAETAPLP

Experiments:
[1] = system: (+)-MK801 binding site of the ionotropic NMDA receptor; assay: NMDA receptor binding on rat brain membrane homogenates, (3H)-(+)-MK801; conditions: rat brain homogenate
[2] = biological target: μ-opiate receptor (Rattus norvegicus, UniProt P33535); assay: μ-opiate receptor binding on rat brain membrane homogenates, tritiated naloxone; conditions: rat brain homogenate; for Ki: read-out: Naloxone Ki, 1 nmole/l tritiated naloxone; for Naloxone (value printed as %): tritiated naloxone, test concentration not given
[3] = system: phenylquinone-induced writhing reactions; assay: Phenylquinone-induced writhing test in mice; conditions: 10 mg/kg i.v., phenylquinone i.p. 10 minutes after substance
[4] = biological target: human μ-opiate receptor (Homo sapiens, UniProt P35372); assay: Human μ-opiate receptor binding, CHO-K1 membrane preparation, [3H]-diprenorphine, SPA; conditions: read-out: Human μ-OR Binding Ki; CHO-K1 membranes, 1 nmole/l [3H]-diprenorphine
[5] = system: wind-up phenomenon (increased firing rate of spinal neurons); assay: Inhibition of the wind-up phenomenon in rats; conditions: 21.5 mg/kg i.v.
[6] = read-out: MK801 Ki, 1 nmole/l (3H)-(+)-MK801, Table 2

| SMILES | Ki [1, 6] [nM] | Ki [2] [nM] | other results |
| --- | --- | --- | --- |
| COc1ccc(C2=CCN(C3(c4ccccc4)CCCCC3)CC2)cc1 | 11100 |  |  |
| COc1cccc(C2=CCN(C3(c4ccccc4)CCCCC3)CC2)c1 | 1600 | 800 |  |
| Fc1ccccc1C1=CCN(C2(c3ccccc3)CCCCC2)CC1 | 600 | 240 | Ki ([1]; read-out: MK801 Binding Ki, (3H)-(+)-MK801, Table 3): 570 nM; % Inhibition of the Writhing Reactions [3]: 72%; Ki [4]: 210 nM; inhibition of the wind-up phenomenon [5]: 70% |
| Cc1cccc(C2=CCN(C3(c4ccccc4)CCCCC3)CC2)c1 | 1400 | 400 |  |
| Cl.Fc1cccc(C2=CCN(C3(c4ccccc4)CCCCC3)CC2)c1 |  |  | % Inhibition of the Writhing Reactions [3]: 98% |
| COc1ccccc1C1=CCN(C2(c3ccccc3)CCCCC2)CC1 | 5200 |  |  |
| Fc1ccc(C2=CCN(C3(c4ccccc4)CCCCC3)CC2)cc1 | 1700 | 60 |  |
| Cc1ccc(C2=CCN(C3(c4ccccc4)CCCCC3)CC2)cc1 | 4500 | 300 |  |
| Fc1cccc(C2=CCN(C3(c4ccccc4)CCCCC3)CC2)c1 | 3900 | 200 |  |
| Cl.Fc1ccc(C2=CCN(C3(c4ccccc4)CCCCC3)CC2)cc1 |  |  | % Inhibition of the Writhing Reactions [3]: 100% |
| COc1ccc(C2=CCN(C3(c4ccccc4)CCCCC3)CC2)cc1.Cl |  |  | Naloxone (value printed as %) [2]: 20% |
| COc1ccccc1C1=CCN(C2(c3ccccc3)CCCCC2)CC1.Cl |  |  | Naloxone (value printed as %) [2]: 50% |
